# Values of other authors as cited in paper PMC5074076, “Novel minimal physiologically-based model for the prediction of passive tubular reabsorption and renal excretion clearance” (European Journal of Pharmaceutical Sciences, 2016).
# Settings: healthy subjects; plasma and urine data from same subjects; normalised for subject weight and body surface area where necessary; ref Table S2.1; cited from earlier work
smiles,measurement,value
Cc1nc2n(c(=O)c1CCN1CCC(c3noc4cc(F)ccc34)CC1)CCCC2 [Risperidone],Overall weighted mean CLR,41.5 mL/min
